Data set [1] deals with H3K27 methylation in OCI-LY19 EZH2 wild-type lymphoma cells.
In data set [2] the test system is SMARCB1 regulated genes in G401 cells. Briefly: Gene expression analysis (qPCR), G401 cells. Format: cell-based. The settings on record: 1 μM, up to 7 days.
For data set [3], the system named is subcutaneous G401 xenografts. Particulars: tumors harvested on day 21; all doses (Example 1).
The test system of data set [4] is H3K27Me3 in PBMCs, bone marrow and skin.

The results in this text go back to patent US12162865B2, “Methods of treating cancer” (Epizyme, Inc., priority 2012, dated 2024).

On to `CCN(c1cc(-c2ccc(CN3CCOCC3)cc2)cc(C(=O)NCc2c(C)cc(C)[nH]c2=O)c1C)C1CCOCC1` [Compound A, N-((4,6-dimethyl-2-oxo-1,2-dihydropyridin-3-yl)methyl)-5-(ethyl (tetrahydro-2H-pyran-4-yl)amino)-4-methyl-4′-(morpholinomethyl)-[1,1′-biphenyl]-3-carboxamide], for which the “histone methyl marks affected” value in data set [1] (OCI-LY19, 2.7 μM, 4 days) was “the only methyl marks affected were the H3K27Me1, H3K27Me2 and H3K27Me3”. For the same compound, in data set [1] (incubation with Compound A), the H3K27 acetylation result was “increase in H3K27 acetylation”. Moreover, in data set [2], the “expression of hedgehog pathway genes, MYC and EZH2” value is listed as “reduced”. Besides, the “EZH2 target inhibition in tumors” value in data set [3] is listed as “strong EZH2 target inhibition”. Further, the “H3K27Me3 positive cells in epidermis of skin (IHC)” value in data set [4] (100, 300, or 1000 mg/kg oral) is recorded as “dose dependent reduction in H3K27Me3 positive cells”. Moreover, the tolerability result in data set [4] (females, 1000 mg/kg group, euthanized on day 23) is “tolerability issues”. Also, the plasma levels result in data set [4] (male and female rats, 100, 300, or 1000 mg/kg oral) is recorded as “increased dose-dependently”.
